# High-throughput results: PubChem BioAssay, Broad Institute
# MITF TRPM1 HTS – increases MITF-driven TRPM1 promoter luciferase signal; AID 588334; SK-MEL-5 TRPM1-promoter luciferase, 24 h; % of positive control, neutral wells = 0; activation, % at 12.5 µM; actives 0.75% (n = 300,000);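 active = mean activation of at least 80% with every replicate also reaching 80%; inconclusive = mean reaches 80% but some replicate falls short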;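 also: 0% = neutral control wells and 100% = parthenolide positive control wells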
# PGC1a acetyl inh – PGC1a acetylation modulation, inhibitor mode. inhibition, % at 15.6 µM. U2OS PGC1a acetylation, AlphaScreen anti-acetyl-lysine; with virally co-expressed GCN5 acetyltransferase. AID 651687. actives 0.17% (n = 350,000);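 active = every replicate shows inhibition of at least 40%; inconclusive = mean inhibition at least 40% but some replicate below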;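 also: 0% = neutral control wells and 100% = positive control wells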
# MITF TRPM1 inh – inhibitors of MITF-driven TRPM1 promoter in melanoma cells. SK-MEL-5 TRPM1 promoter luciferase, 24 h. AID 488899. inhibition, % at 12.5 µM. actives 0.83% (n = 330,000);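 active = mean inhibition across replicates of 60% or more, whatever share of single replicates reaches that level; inconclusive = some that reach 60%, reason not given; inactive = mean inhibition across replicates below 60%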
# Wnt bcat act – activators of Wnt/beta-catenin signaling; Wnt/beta-catenin reporter cell assay, activator, plate reader; activation, % at 9.35 µM; actives 1.2% (n = 300,000); AID 743398; in the data active = activation above about 30%, passing the limit was not always enough; inconclusive = no clear call, values can overlap the other calls;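 also: 0% = neutral control wells and 100% = positive control wells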
# Yeast UUG start – modulators of start codon recognition fidelity in yeast; S. cerevisiae UUG-firefly luciferase reporter, luminescence/redox ratio; activity score, % at 18.7 µM; hit rate 0.13% among 350,000; AID 602363;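 active = replicate mean at a twofold rise or more, about +100% in these data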;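 note: firefly luciferase made from a UUG start codon reports start codon fidelity; reporter light over untreated wells divided by growth signal over untreated wells; some hits fall short of that in this replicate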
# miR122 inh – miR-122 inhibition in Huh7 cells. Huh7 miR-122 Renilla luciferase sensor, 48 h; neutral wells = 0, positive control = 100. activation (reporter increase), % at 12.5 µM. actives 0.3% (n = 340,000);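 active = mean replicate activation score at least 90 and every replicate individually at or above 90; inconclusive = only one of the two criteria met; inactive = neither criterion met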;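 also: higher luciferase means less miR-122 activity so hits act as miR-122 inhibitors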
# Numbers without * were called inactive; ? = inconclusive; / = no result; [ ] = dose if it differs, or a comment. Sampled rows, rich in hits. Any-hit rate of the full collection: about 2.1%.
SMILES,MITF TRPM1 HTS,PGC1a acetyl inh,MITF TRPM1 inh,Wnt bcat act,Yeast UUG start,miR122 inh
O=C(c1cc(-c2cccs2)on1)N1CCN(C(c2ccccc2)c2ccccc2)CC1,-68.9,-15.2,67.8*,-3.1,-13.1,-3.7
C[C@@H]1CN([C@@H](C)CO)C(=O)Cc2cc(NC(=O)Nc3ccc(C(F)(F)F)cc3)ccc2O[C@@H]1CN(C)Cc1ccncc1,/,-5.1,/,/,-3.1,40.5[16.7 µM]
C[C@H](CO)N1C[C@H](C)[C@@H](CN(C)Cc2ccc(Oc3ccccc3)cc2)Oc2c(NC(=O)c3ccc(-c4nccs4)cc3)cccc2C1=O,/,-2.5,/,/,26.6,49.5[16.7 µM]
CCOC(=O)Nc1sc(C)nc1-c1ccccc1,17.0,3.7,-15.6,5.5,-14.7,/
CCOC(=O)Nc1nc(-c2ccccc2)c(C(=O)c2ccc(Cl)cc2)s1,-27.4,-15.7,26.6,/,-12.7,109.6*
CCCCC(O)(CCCC)C(=O)NN(C(=O)OCC)c1ccccc1,-6.6,/,7.9,-3.2,/,/
CCCCC(O)(CCCC)C(=O)NN(C(=O)OC)c1ccccc1,3.3,/,-1.7,0.1,-4.4,143.6*
CCC(=O)N1C[C@H]2[C@@H](c3ccccc31)[C@H](CO)N2Cc1ccc(F)cc1,/,-2.9,/,/,-3.6,9.5[16.7 µM]
C[C@@H]1CCCCO[C@@H](CN(C)Cc2ccc(Cl)c(Cl)c2)[C@@H](C)CN([C@H](C)CO)C(=O)c2cc(NC(=O)NC3CCCCC3)ccc2O1,/,/,/,/,9.9,4.8[16.7 µM]
C[C@@H]1CN([C@H](C)CO)C(=O)Cc2cc(NC(=O)Cc3cn(C)c4ccccc34)ccc2O[C@H]1CN(C)CC1CCCCC1,/,6.2,/,/,-0.1,-0.9[16.7 µM]
CCc1cc(-c2ccc3c(c2)COc2c4ccccc4nn2-3)on1,73.1,/,-74.6,19.6,-26.6,-2.4
CCCC#Cc1ccc2c(c1)COc1c3ccccc3nn1-2,51.4,-2.8,-52.3,?,-40.7,8.4
CC(C)[C@@H](CO)NC(=O)c1ccc2c3n(nc2c1)-c1ccc(Cl)cc1CO3,89.0*,/,-90.1,44.7*,-16.7,-7.6
C[C@@H](CO)NC(=O)c1ccc2c3n(nc2c1)-c1ccc(Cl)cc1CO3,101.9*,/,-104.0,46.5*,-1.5,4.2
CC(=O)c1ccc2noc(-c3ccccc3)c2c1,18.7,12.4,-19.1,6.6,1.7,-1.0
c1ccc(-c2onc3cc4c(cc23)OCCO4)cc1,106.4*,-1.9,-101.2,/,-16.2,4.9
Cc1noc(C)c1S(=O)(=O)N(C)C[C@@H]1OCCCC[C@@H](C)Oc2ccc(NC(=O)NC(C)C)cc2C(=O)N([C@@H](C)CO)C[C@H]1C,/,-3.9,/,/,13.2,1.9[16.7 µM]
C=C1C(=O)C23C(O)C1CCC2C12CCCC(C)(COC(C)=O)C1C(O)C3(O)OC2 (stereo not given),-96.5,/,97.1*,-6.3,/,/
C[C@@H]1CN([C@H](C)CO)C(=O)CCCn2nncc2CO[C@@H]1CN(C)C(=O)Nc1ccc(C(F)(F)F)cc1,/,-4.4,/,/,1.8,-0.2[16.7 µM]
C#CCN1C(=O)S/C(=C/c2cc(C)n(CC)c2C)C1=O,66.7,/,-62.0,/,/,/
CCn1c(C)cc(/C=C2/SC(=O)N(C(C)C(=O)OC)C2=O)c1C (stereo not given),?,-7.8,-79.4,47.4*,-6.4,-16.3
Cc1cccc(NC(=O)CN2C(=O)N/C(=C/c3cc(C)n(C(C)C)c3C)C2=O)c1,-6.4,-10.2,7.3,/,-9.1,3.3
CCOC(=O)C(C)N1C(=O)S/C(=C/c2cc(C)n(-c3ccccn3)c2C)C1=O (stereo not given),33.6,-20.5,-33.2,47.1*,-10.8,-4.0
CCOC(=O)C(C)N1C(=O)S/C(=C/c2cc(C)n(-c3ccncc3)c2C)C1=O (stereo not given),0.1,-1.9,1.5,1.2,-2.8,1.6
COC(=O)C(C)N1C(=O)S/C(=C/c2cc(C)n(C(C)C)c2C)C1=O (stereo not given),86.2*,-2.5,-82.7,38.4*,4.8,-0.3

# Two compounds picked at random from the list so far:
SMILES,MITF TRPM1 HTS,PGC1a acetyl inh,MITF TRPM1 inh,Wnt bcat act,Yeast UUG start,miR122 inh
C[C@@H]1CN([C@H](C)CO)C(=O)CCCn2nncc2CO[C@@H]1CN(C)C(=O)Nc1ccc(C(F)(F)F)cc1,/,-4.4,/,/,1.8,-0.2[16.7 µM]
CCc1cc(-c2ccc3c(c2)COc2c4ccccc4nn2-3)on1,73.1,/,-74.6,19.6,-26.6,-2.4

# Next section
SMILES,MITF TRPM1 HTS,PGC1a acetyl inh,MITF TRPM1 inh,Wnt bcat act,Yeast UUG start,miR122 inh
COCCn1c(C)cc(/C=C2/SC(=O)N(C(C)C(=O)OC)C2=O)c1C (stereo not given),97.1*,/,-100.1,-2.1,/,/
COC(=O)CN1C(=O)S/C(=C/c2cc(C)n(C)c2C)C1=O,69.5,/,-67.3,?,-13.4,-15.0
C[C@@H]1CN([C@H](C)CO)C(=O)c2cc(NS(=O)(=O)c3cccs3)ccc2O[C@@H](C)CCCCO[C@H]1CN(C)S(=O)(=O)c1cccs1,/,-3.8,/,/,-14.7,0.6[16.7 µM]
CCC(=O)Nc1ccc(-c2ccc(N3CCC(C)CC3)nn2)cc1,88.5*,/,-90.2,/,-21.8,/
CCC(=O)Nc1cccc(-c2ccc(N3CCC(C)CC3)nn2)c1,6.8,/,-9.1,27.4,-63.5,6.0
N#C/C(=C\c1ccc[nH]1)C(=O)Nc1ccccc1F,19.1,-1.7,-16.7,32.6*,-11.6,-7.0
Cc1cc(/C=C(\C#N)C(=O)NC2CC2)c(C)[nH]1,93.6*,2.7,-88.9,?,-0.2,-8.8
Cc1cc(/C=C(\C#N)C(=O)Nc2ccccc2F)c(C)[nH]1,106.0*,-1.3,-102.4,19.1,3.0,-4.9
Cc1ccc(S(=O)(=O)N/N=C/c2ccc(OCC(=O)Nc3ccccc3Cl)cc2)cc1,3.7,/,-3.3,3.8,25.5,219.5*
COc1ccc(-c2cc(C(F)(F)F)nc(S(C)(=O)=O)n2)cc1,/,-66.3,61.2*,/,/,8.0
CS(=O)(=O)c1nc(-c2ccc(F)cc2)cc(C(F)(F)F)n1,-96.5,/,97.3*,?,/,/
COc1ccc(-c2cc(C(F)(F)F)nc(N)n2)cc1,3.9,5.2,-8.1,15.1,-23.3,15.8
Nc1nc(-c2ccc(F)cc2)cc(C(F)(F)F)n1,/,11.6,14.9,-1.8,11.9,1.5
COCC(=O)N1[C@H](CO)[C@@H]2c3ccccc3N(C(=O)C3CC3)C[C@@H]21,/,6.8,/,/,-0.1,16.7[16.7 µM]
CN(C)S(=O)(=O)c1cccc(NC(=S)N/N=C/c2cc(Br)ccc2O)c1,-65.5,25.1,66.8*,0.6,-14.1,15.6
COc1cc(/C=C2\CC(C(C)(C)C)C/C(=C\c3cc(OC)c(OC)c(OC)c3)C2=O)cc(OC)c1OC (stereo not given),-81.6,?,84.2*,-14.7,-7.1,8.8
COc1cc(/C=C2\COC/C(=C\c3cc(OC)c(OC)c(OC)c3)C2=O)cc(OC)c1OC,-90.0,/,92.1*,-17.7,/,/
Cc1nn(C)cc1NC(=O)C[C@@H]1CC[C@@H]2[C@@H](COc3ccc(NC(=O)Nc4cccc(Cl)c4)cc3C(=O)N2C)O1,/,-3.5,/,/,-14.7,-47.8[16.7 µM]
Cc1cc(C(=O)CSc2n[nH]c(N)n2)c(C)n1-c1cccc(F)c1,29.7,-0.4,-27.9,-2.3,-30.1,28.9
Cc1cc(C(=O)COC(=O)C2=COCCO2)c(C)n1-c1cccc(F)c1,107.3*,/,-104.4,2.2,/,/
Cc1cc(C(=O)CSc2nnnn2C)c(C)n1-c1cccc(F)c1,98.1*,10.1,-93.5,/,-24.4,-2.7
Cc1cc(C(=O)CSc2ncccn2)c(C)n1-c1cccc(F)c1,34.2,5.5,-32.2,82.5*,-4.4,0.1

# Quoted from the listing.
# Under Wnt bcat act, COC(=O)C(C)N1C(=O)S/C(=C/c2cc(C)n(C(C)C)c2C)C1=O (stereo not given) has 38.4*
# Under MITF TRPM1 HTS, C#CCN1C(=O)S/C(=C/c2cc(C)n(CC)c2C)C1=O has 66.7
# Under miR122 inh, CN(C)S(=O)(=O)c1cccc(NC(=S)N/N=C/c2cc(Br)ccc2O)c1 has 15.6

# Structures shown so far that have two or more sulfur atoms (two):
SMILES,MITF TRPM1 HTS,PGC1a acetyl inh,MITF TRPM1 inh,Wnt bcat act,Yeast UUG start,miR122 inh
C[C@@H]1CN([C@H](C)CO)C(=O)c2cc(NS(=O)(=O)c3cccs3)ccc2O[C@@H](C)CCCCO[C@H]1CN(C)S(=O)(=O)c1cccs1,/,-3.8,/,/,-14.7,0.6[16.7 µM]
CN(C)S(=O)(=O)c1cccc(NC(=S)N/N=C/c2cc(Br)ccc2O)c1,-65.5,25.1,66.8*,0.6,-14.1,15.6
